# Antibody variant affinities, Ab-14 light chain, assay 1

Data: MIT Lincoln Laboratory AlphaSeq set, Engelhart et al. 2022, doi:10.1038/s41597-022-01779-4, as distributed in FLAb.

Target: peptide PDVDLGDISGINAS, taken from heptad repeat 2 (HR2) of SARS-CoV-2 spike.

Each scFv is VH, the linker GGGGSGGGGSGGGGS, VL, as in the parent Ab-14, and differs from it in the CDRs of the light chain only.
VH: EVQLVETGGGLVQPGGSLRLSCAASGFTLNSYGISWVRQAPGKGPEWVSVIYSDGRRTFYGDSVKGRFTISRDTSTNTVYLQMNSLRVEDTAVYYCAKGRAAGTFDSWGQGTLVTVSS
VL: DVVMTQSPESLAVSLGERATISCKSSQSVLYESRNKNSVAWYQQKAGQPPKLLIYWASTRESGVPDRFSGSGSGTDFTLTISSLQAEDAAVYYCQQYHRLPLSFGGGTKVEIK

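The starting antibody came from a phage panning campaign against this peptide. In library AAYL50, one, two or three CDR residues were substituted; doubles and triples were drawn at random. In AlphaSeq, yeast of one mating type display the scFv and yeast of the other type display the target. After mating in shaken culture at 30 °C for 16 h, diploids were selected and their barcode pairs sequenced. Read counts were normalised to the haploid input and turned into Kd by a linear fit to BCL2-family pairs of known affinity, for each replicate. Each pool was mated in three replicate cultures.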

Substitutions are numbered in sequence along the VL above, starting at 1 (not Kabat). This list gathers variants with a substitution at S58 (VL, numbered from residue 1). Values are log10 of the apparent Kd in nM; lower means stronger binding. Replicates are averaged; those with no signal do not enter the mean. Where no diploid with the target was found in any replicate, the entry reads "no signal": below detection, most likely a poor binder, though not proof of it. Empty control strains, which show no peptide, gave a signal in 18% of pairings with library AAYL50; the median was 4.19 and 95% of these signals were weaker than 2.99. No background was subtracted.

With S58G P101N S103L the result was no signal (0 of 3 replicates).
With N37K S58H the result was no signal (0 of 3 replicates).
With S58W T59F the result was no signal (0 of 3 replicates).
With S26A W56M S58N the result was 1.46 (3 of 3 replicates).
With A40M S58Q H98T the result was 3.37 (2 of 3 replicates).
With K24C S58E R99H the result was 1.85 (3 of 3 replicates).
With S58R Q95Y L102D the result was no signal (0 of 3 replicates).
With S33C S58I R99Y the result was no signal (0 of 3 replicates).
With A57D S58G S62F the result was no signal (0 of 3 replicates).
With L30R S58V R60E the result was no signal (0 of 3 replicates).
With R34T K36H S58G the result was 1.59 (3 of 3 replicates).
With V29I S58P L100G the result was no signal (0 of 3 replicates).
With K36D S58F the result was 3.91 (2 of 3 replicates).
With S26G S58A S103K the result was 4.34 (2 of 3 replicates).
With Y31E S33R S58V the result was 1.21 (3 of 3 replicates).
With S38P S58M H98C the result was no signal (0 of 3 replicates).
With E32K S58Q Y97E the result was no signal (0 of 3 replicates).
With Q27G S58I L100M the result was 2.25 (3 of 3 replicates).
With N35L S58Q Q95I the result was 3.27 (3 of 3 replicates).
With S28C S58P the result was 4.95 (2 of 3 replicates).
With S58H S62L S103H the result was 2.31 (3 of 3 replicates).
With N35W S58W Q95D the result was 4.51 (3 of 3 replicates).
With L30G Y31V S58D the result was no signal (0 of 3 replicates).
With S26A S58F Q96H the result was no signal (0 of 3 replicates).
With R34D S58K L102A the result was no signal (0 of 3 replicates).
With V29I S58N H98S the result was 0.85 (3 of 3 replicates).
With Q27A S58C Q95G the result was 4.75 (2 of 3 replicates).
With L30H S58I P101K the result was 2.36 (2 of 3 replicates).
With A40I S58D Q96K the result was no signal (0 of 3 replicates).
With S58T the result was 0.99 (3 of 3 replicates).
With S38H S58W Q96W the result was no signal (0 of 3 replicates).
With E32Q A40W S58W the result was no signal (0 of 3 replicates).
With K24N S58F R99C the result was 3.96 (1 of 3 replicates).
With S25C S58H S103L the result was 1.21 (3 of 3 replicates).
With K24N N35D S58K the result was 1.52 (3 of 3 replicates).
With S58A the result was 1.41 (3 of 3 replicates).
With S28P Y31N S58D the result was 0.62 (3 of 3 replicates).
With S58P R60E H98V the result was 4.59 (1 of 3 replicates).
With S33C V39G S58C the result was no signal (0 of 3 replicates).
With Q27E S58V Y97K the result was 1.27 (3 of 3 replicates).
With S58E L100M the result was 1.09 (3 of 3 replicates).
With S58W the result was 2.57 (3 of 3 replicates).
With E32D S58Q P101T the result was 2.11 (3 of 3 replicates).
With E32M S38H S58T the result was no signal (0 of 3 replicates).
With S58Y L100N S103F the result was no signal (0 of 3 replicates).

7 of these entries, quoted again:

changes,"log10 Kd (nM), mean",detected
E32M S38H S58T,no signal,0 of 3
S25C S58H S103L,1.21,3 of 3
V29I S58P L100G,no signal,0 of 3
S33C S58I R99Y,no signal,0 of 3
K24N S58F R99C,3.96,1 of 3
R34T K36H S58G,1.59,3 of 3
S38H S58W Q96W,no signal,0 of 3